Values of other authors, collected in patent publication US20240059655A1, “HETEROCYCLIC G-PROTEIN-COUPLED RECEPTOR 52 (GPR52) AGONISTS” (Board of Regents, The University of Texas System, priority 2020, published 2024).

Chains of the proteins cited; added tags and fusions are not shown.
UniProt Q9Y2T5, whole entry: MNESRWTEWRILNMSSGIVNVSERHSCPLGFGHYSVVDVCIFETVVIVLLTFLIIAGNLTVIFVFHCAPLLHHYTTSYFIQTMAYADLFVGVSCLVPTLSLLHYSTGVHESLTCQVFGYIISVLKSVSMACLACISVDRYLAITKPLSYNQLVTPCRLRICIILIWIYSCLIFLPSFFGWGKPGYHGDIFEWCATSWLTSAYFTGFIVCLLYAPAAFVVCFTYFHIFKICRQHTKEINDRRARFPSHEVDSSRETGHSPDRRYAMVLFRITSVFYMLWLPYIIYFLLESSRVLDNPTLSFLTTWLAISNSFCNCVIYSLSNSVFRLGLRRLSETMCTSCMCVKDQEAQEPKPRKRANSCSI

Key:
[1] = reported in the literature; cited from earlier work
[2] = tested on: rodent; details: dose of 3 mg/kg; cited from earlier work
[3] = molecular target: GPR52 (Homo sapiens (Human), UniProt Q9Y2T5); details: reported in the literature; cited from earlier work

Row | Compound | bioavailability (F) [1] [%] | methamphetamine-induced hyperactivity [2] | GPR52 Emax [3] [%]
1 | COCCNC(=O)c1cccc(-c2cccc3cc(Cc4cc(F)cc(Cl)c4)sc23)c1 | 73 | significantly inhibited | 
2 | Cc1nn(-c2cccc3cc(Cc4cc(F)cc(Cl)c4)sc23)c(CO)c1C(=O)NCCO |  |  | 103
